Experimental data: patent US6998409B2, “Substituted 2-pyridine cyclohexane-1,4-diamine compounds” (dated 2006)

Tested on: mice
Assay: Analgesia testing in the tail flick test in mice
Conditions: 10 mg/kg intravenous (dose in parentheses)

SMILES	% MPE in comparison to control group
CC(=O)N(CCc1c[nH]c2ccccc12)C1CCC(c2ccccn2)(N(C)C)CC1 (centres unmarked)	71 (10) % MPE
COC(=O)C(Cc1c[nH]c2ccccc12)NC1CCC(c2ccccn2)(N(C)C)CC1 (single isomer, unassigned)	91 (10) % MPE
